Laboratory results taken from US20130053392A1, “CARBONIC ANHYDRASE INHIBITORS” (priority 2010, published 2013).

Tested on: MDA-231 GFP cells
Test: Cell migration (scratch wound) assay, MDA-231
Type: cell-based
Settings: 33 μM, 4 and 8 hours, normoxic and anoxic conditions, FIG. 6

Cc1cc(C)cc(NC(=O)Nc2ccc(OS(N)(=O)=O)cc2)c1 [Compound 3p, 4-[(3,5-dimethylphenyl)ureido]phenyl sulfamate]
gap closure (cell migration) versus control: significantly inhibits cell migration
